The target of this assay is Human TRAIL-R2-Fc fusion protein (wild type) (human, UniProt O14763 58-184). The assay is described as follows: SPR. On the technique in general: In SPR one partner is held on a chip, and binding of the other changes the refractive index at the surface.

Sequences of proteins named here, by UniProt entry; tags and fusion partners are left off. Residues count along the entry.
UniProt O14763, 58-184: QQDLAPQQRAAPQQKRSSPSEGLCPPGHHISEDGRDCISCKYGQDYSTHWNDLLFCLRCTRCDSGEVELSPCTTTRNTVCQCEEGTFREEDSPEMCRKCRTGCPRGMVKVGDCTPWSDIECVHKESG

B1: TRAIL (TNF-related apoptosis inducing ligand) ectodomain (ligand)
chain: TNELKQMQDKYSKSGIACFLKEDDSYWDPNDEESMNSPCWQVKWQLRQLVRKMILRTSEETISTVQEKQQNISPLVRERGPQRVAAHITGTRGRSNTLSSPNSKNEKALGRKINSWESSRSGHSFLSNLHLRNGELVIHEKGFYYIYSQTYFRFQEEIKENTKNDKQMVQYIYKYTSYPDPILLMKSARNSCWSKDAEYGLYSIYQGGIFELKENDRIFVSVTNEHLIDMDHEASFFGAFLVG
Molecule B1 gave an equilibrium dissociation constant (Kd) of 4 nM.

Broadly, the Kd is the equilibrium constant for the complex coming apart.

The values above are taken from article PMC3605307 (2013).
